# Activity calls are given as the source filed them. How the calls were made is not given here.
# System: rodent lifetime carcinogenesis bioassay, tumor incidence TD50
# Assay: chronic cancer bioassays in animals – CPDB, compiled studies (AID 1745844)
# Details: by gavage; for carcinogen call: dosed 52 weeks
Structure (SMILES),"carcinogen call (mouse, strain CBA x C57BL, females, site: any site (literature study), lesion: several types, types named in the paper, study length 84 weeks)","carcinogen call (mouse, strain CBA x C57BL, females, site: liver, lesion: one or several types, types not named, study length 84 weeks)","carcinogen call (mouse, strain CBA x C57BL, males, site: any site (literature study), lesion: several types, types named in the paper, study length 86 weeks)","carcinogen call (mouse, strain CBA x C57BL, males, site: liver, lesion: one or several types, types not named, study length 86 weeks)","carcinogen call (rat, strain Wistar, females, site: any site (literature study), lesion: several types, types named in the paper, study length 117 weeks)","carcinogen call (rat, strain Wistar, females, site: liver, lesion: one or several types, types not named, study length 117 weeks)","carcinogen call (rat, strain Wistar, males, site: any site (literature study), lesion: several types, types named in the paper, study length 126 weeks)","carcinogen call (rat, strain Wistar, males, site: liver, lesion: one or several types, types not named, study length 126 weeks)","TD50 (mouse, strain CFLP, males, site: any site (literature study), lesion: several types, types named in the paper, dosed 80 weeks, study length 104 weeks) [mg/kg/day]"
O=c1[nH]c(=O)n([C@H]2CCCO2)cc1F,inactive: negative,inactive: negative,inactive: negative,inactive: negative,inactive: negative,inactive: negative,inactive: negative,inactive: negative,–
CC12CCC(CC1)C(C)(C)O2,–,–,–,–,–,–,–,–,119
